Results reported in patent US11090304B2 (Amgen Inc., priority 2018, dated 2021).

Protein sequences, listed by entry. Tags and fused reporters are not part of them. Lines headed by an entry give the natural chain unless they say otherwise; changes in a name come on top.
UniProt P01116: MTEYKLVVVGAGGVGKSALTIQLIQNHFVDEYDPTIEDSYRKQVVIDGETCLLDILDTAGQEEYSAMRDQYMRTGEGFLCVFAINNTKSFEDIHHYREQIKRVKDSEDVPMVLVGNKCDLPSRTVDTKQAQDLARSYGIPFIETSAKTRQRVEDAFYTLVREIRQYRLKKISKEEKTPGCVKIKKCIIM

Assays:
[1] = target: GDP-bound KRAS protein (aa 1-169), containing both G12C and C118A amino acid substitutions (Homo sapiens, UniProt P01116, C118A/G12C); assay: Coupled nucleotide exchange assay (SOS-mediated, AlphaScreen); format: biochemical
[2] = system: Phosphorylation of ERK1/2 in MIA PaCa-2 cells; assay: Phospho-ERK1/2 MSD assay in MIA PaCa-2 cells; format: cell-based; conditions: Homo sapiens, MIA PaCa-2, 2 h, read-out: p-ERK IC50 (2 h; MIA PaCa-2)
Description: For compounds in Table 89, the following assay conditions were employed:
Phospho-ERK1/2 MSD Assay:
Sixteen hours prior to compound treatment, MIA PaCa-2 or A549 cells were seeded in 96-well cell culture plates at a density of 25,000 cells/well and incubated at 37° C., 5% CO2. A compound dose-response titration was diluted in growth media, added to appropriate wells of a cell culture plate, and then incubated at 37° C., 5% CO2 for 2 or 4 hours (see Table 15). Following compound treatment, cells were stimulated with 10 ng/mL EGF (Roche 11376454001) for 10 min, washed with ice-cold Dulbecco's phosphate-buffered saline, no Ca^2+ or Mg^2+ (ThermoFisher Scientific 14190144), and then lysed in RIPA buffer (50 mM Tris-HCl pH 7.5, 1% Igepal, 0.5% sodium deoxycholate, 150 mM NaCl, and 0.5% sodium dodecyl sulfate) containing protease inhibitors (Roche 4693132001) and phosphatase inhibitors (Roche 4906837001). Phosphorylation of ERK1/2 in compound-treated lysates was assayed using Phospho-ERK1/2 Whole Cell Lysate kits (Meso Scale Discovery K151DWD) according to the manufacturer's protocol. Assay plates were read on a Meso Scale Discovery Sector Imager 6000, and data were analyzed using a 4-parameter logistic model to calculate IC50 values.

Compound	Coupled exchange IC50 (5 min) [1]	IC50 [2] [nM]
C=CC(=O)N1CCN(c2nc(=O)n(-c3c(C)ccnc3CCC)c3nc(-c4c(O)cccc4F)c(F)cc23)[C@@H](C)C1 (single isomer, unassigned) [Example 58-2-1]	0.487 | nda μM	399
C=CC(=O)N1CCN(c2nc(=O)n(-c3c(C)ccnc3CCC)c3nc(-c4c(O)cccc4F)c(F)cc23)[C@@H](C)C1 (single isomer, unassigned) [Example 58-2-2]	1.96 | nda μM	
C=CC(=O)N1CCN(c2nc(=O)n(-c3c(C)ccnc3CCC)c3nc(-c4c(O)cccc4F)c(F)cc23)[C@@H](C)C1 [Example 58-2, 6-fluoro-7-(2-fluoro-6-hydroxyphenyl)-4-((2S)-2-methyl-4-(2-propenoyl)-1-piperazinyl)-1-(4-methyl-2-propyl-3-pyridinyl)pyrido[2,3-d]pyrimidin-2(1H)-one]	0.754 | nda μM	556
